scFv variants of Ab-14 (heavy chain) against a SARS-CoV-2 spike peptide

From the AlphaSeq antibody data of Engelhart et al. 2022 (doi:10.1038/s41597-022-01779-4), copy in the FLAb collection.

The target is the same throughout: PDVDLGDISGINAS, from the HR2 region of SARS-CoV-2 spike.

Each scFv is VH, three GGGGS repeats, VL, as in the parent Ab-14, and differs from it in the CDRs of the heavy chain only.
VH: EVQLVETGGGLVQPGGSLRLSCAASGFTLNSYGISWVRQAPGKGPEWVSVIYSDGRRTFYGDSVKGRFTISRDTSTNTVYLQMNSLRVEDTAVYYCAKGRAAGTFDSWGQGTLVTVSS
VL: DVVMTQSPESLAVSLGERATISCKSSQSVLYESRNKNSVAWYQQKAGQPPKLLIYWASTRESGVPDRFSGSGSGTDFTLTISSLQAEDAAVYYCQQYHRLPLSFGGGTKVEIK

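The starting antibody came from a phage panning campaign against this peptide. Variants in AAYL49 differ from the parent at up to three CDR positions; double and triple changes were sampled at random. The assay is AlphaSeq: two haploid yeast populations carry antibody and antigen on their surface. After mating in shaken culture at 30 °C for 16 h, diploids were selected and their barcode pairs sequenced. Read counts were normalised to the haploid input and turned into Kd by a linear fit to BCL2-family pairs of known affinity, for each replicate. The assay was run in three technical replicates.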

Positions count from residue 1 of the parent VH; G61S puts S in place of G.
Affinities are written as log10 Kd with Kd in nM; a lower number is a better binder.
"nd" means that the variant was in the library but no mating with the target was seen in that replicate; the authors take this as a sign of poor binding, and no number exists.
Empty control strains, which show no peptide, gave a signal in 15% of pairings with library AAYL49; the median was 4.06 and 95% of these signals were weaker than 2.83. No background was subtracted.

{"changes": "G61S T104I D106Y", "replicates, log10 nM": "0.52 0.76 0.78"}
{"changes": "F59I A101F A102W", "replicates, log10 nM": "nd nd nd"}
{"changes": "R56S R100A A102E", "replicates, log10 nM": "nd nd nd"}
{"changes": "G33N Y60T T104L", "replicates, log10 nM": "3.43 nd nd"}
{"changes": "S31F I34T R100E", "replicates, log10 nM": "4.22 nd 4.45"}
{"changes": "R57K S63V D106Q", "replicates, log10 nM": "4.32 nd 5.65"}
{"changes": "G26I S35N V64D", "replicates, log10 nM": "nd nd nd"}
{"changes": "S35P S53G R57T", "replicates, log10 nM": "4.09 nd nd"}
{"changes": "Y52S D106T", "replicates, log10 nM": "nd nd 5.19"}
{"changes": "G26Q T28C Y52I", "replicates, log10 nM": "nd 4.83 4.69"}
{"changes": "L29Y G61R K65D", "replicates, log10 nM": "4.11 nd nd"}
{"changes": "D54R F59A R100F", "replicates, log10 nM": "nd nd 5.97"}
{"changes": "L29H S63A A102C", "replicates, log10 nM": "nd nd 6.03"}
{"changes": "Y32V D62W V64Y", "replicates, log10 nM": "nd nd nd"}
{"changes": "S35T Y52M Y60G", "replicates, log10 nM": "nd nd nd"}
{"changes": "F27M S31W", "replicates, log10 nM": "1.78 2.14 1.86"}
{"changes": "Y32C V64R R100E", "replicates, log10 nM": "nd nd nd"}
{"changes": "G33L Y60A S63L", "replicates, log10 nM": "5.42 nd nd"}
{"changes": "S35P Y52M D54T", "replicates, log10 nM": "5.40 nd nd"}
{"changes": "S35D A101F G103R", "replicates, log10 nM": "nd nd nd"}
{"changes": "V50Y I51W Y52I", "replicates, log10 nM": "nd 3.88 4.53"}
{"changes": "F27Y R57Y F105Y", "replicates, log10 nM": "nd nd nd"}
{"changes": "G26S D54W V64G", "replicates, log10 nM": "nd nd nd"}

Picked from the list: the 2 lowest averages where every replicate gave a value.

{"changes": "G61S T104I D106Y", "replicates, log10 nM": "0.52 0.76 0.78"}
{"changes": "F27M S31W", "replicates, log10 nM": "1.78 2.14 1.86"}